Results reported in patent US7531651B2, “Benzenesulphonate salt of a morpholine urea derivative for use as a CCR-3 antagonist in the treatment of inflammatory conditions” (Glaxo Group Limited, priority 2002, dated 2009).

Experiment: Solid form storage stability tests (temperature/humidity/light)
Conditions: 25 days

## NC(=O)c1ccc(CNC(=O)NC[C@H]2CN(Cc3ccc(Cl)c(Cl)c3)CCO2)cc1.O.O.O=S(=O)(O)c1ccccc1 [compound of the invention, 4-({[({[(2S)-4-(3,4-dichlorobenzyl)morpholin-2-yl]methyl}amino)carbonyl]amino}methyl)benzamide benzenesulfonate dihydrate]
40° C./20% relative humidity
  degradation on storage (solid form): no significant degradation
40° C./75% relative humidity
  degradation on storage (solid form): no significant degradation
